Experimental data as given in US20140004198A1, “GLP-1 PARTICLES AND COMPOSITIONS” (Novo Nordisk A/S, priority 2011, published 2014).

Assay: Solubility of protamine sulphate stock solution with added NaCl
Format: physicochemical
Details: 21° C.
Description: In one embodiment, the stock solution of the polycationic compound is prepared with NaCl. […] This allows the storage and/or use of higher concentrations and lowers the volumes of polycationic compound stock solution needed. This makes much larger volume available for either the GLP-1 compound stock solution or the solution of metal salt. Thereby, it is easier to control the mixing process, involving the aqueous solution of GLP-1 compound and the stock solution of metal salt. As a result of this, it is easier to control the particle size of the core precipitate. The injectability of the final formulation is thereby improved, especially after storage at elevated temperatures. For example, a 30-60 mg/mL protamine sulphate stock solution is achievable at 21° C. when adding sodium chloride corresponding to a concentration of 0.3M, and a 30-80 mg/mL protamine sulphate stock solution is achievable at 21° C. when adding sodium chloride corresponding to a concentration of 0.5M.

With protamine sulphate the “achievable protamine sulphate stock solution concentration” value (sodium chloride 0.3M) was 30 to 60 mg/mL and the “achievable protamine sulphate stock solution concentration” value (sodium chloride 0.5M) was 30 to 80 mg/mL.
